Molecular target: DPP-IV (Homo sapiens, UniProt P27487)
Test: in vitro
Conditions: isolated enzyme dpp iv, pH 7.4

Protein sequences, listed by entry. Tags and fused reporters are not part of them.
UniProt P27487, whole entry, species assumed: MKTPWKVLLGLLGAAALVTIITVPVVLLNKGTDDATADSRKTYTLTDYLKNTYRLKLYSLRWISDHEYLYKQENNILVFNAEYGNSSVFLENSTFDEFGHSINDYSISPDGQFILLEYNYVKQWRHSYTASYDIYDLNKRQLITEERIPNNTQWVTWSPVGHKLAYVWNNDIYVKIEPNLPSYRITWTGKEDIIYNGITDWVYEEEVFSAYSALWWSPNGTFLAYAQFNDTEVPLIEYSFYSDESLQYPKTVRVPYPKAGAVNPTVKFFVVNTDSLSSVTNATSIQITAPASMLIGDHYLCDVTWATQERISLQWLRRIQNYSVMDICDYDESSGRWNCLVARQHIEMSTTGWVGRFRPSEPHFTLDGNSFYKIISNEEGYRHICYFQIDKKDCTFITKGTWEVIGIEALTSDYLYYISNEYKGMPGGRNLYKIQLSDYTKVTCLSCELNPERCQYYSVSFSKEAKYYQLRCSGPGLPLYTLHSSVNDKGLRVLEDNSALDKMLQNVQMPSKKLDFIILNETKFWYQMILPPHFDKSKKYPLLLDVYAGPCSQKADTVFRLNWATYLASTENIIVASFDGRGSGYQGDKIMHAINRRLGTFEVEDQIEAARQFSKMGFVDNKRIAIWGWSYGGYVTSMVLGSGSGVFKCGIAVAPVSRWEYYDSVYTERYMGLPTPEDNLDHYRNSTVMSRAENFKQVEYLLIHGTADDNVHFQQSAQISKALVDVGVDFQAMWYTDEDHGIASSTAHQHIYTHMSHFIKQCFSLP

| remaining at 1 h, 0.5 nmol/L [%] | remaining at 24 h, 0.5 nmol/L [%] | Compound |
| --- | --- | --- |
| 98 | 92 | CC[C@H](C)[C@H](NC(=O)[C@H](Cc1ccccc1)NC(=O)[C@H](CCC(=O)O)NC(=O)[C@H](CCCCN)NC(=O)[C@H](C)NC(=O)[C@H](C)NC(=O)[C@H](CCC(N)=O)NC(=O)[C@H](CCC(=O)O)NC(=O)[C@H](CCC(=O)O)NC(=O)[C@H](CC(C)C)NC(=O)[C@H](Cc1ccc(O)cc1)NC(=O)[C@H](CO)NC(=O)[C@H](CO)NC(=O)[C@@H](NC(=O)[C@H](CC(=O)O)NC(=O)[C@H](CO)NC(=O)[C@@H](NC(=O)[C@H](Cc1ccccc1)NC(=O)[C@@H](NC(=O)CNC(=O)[C@@H](/C=C(\F)[C@H](C)NC(=O)[C@@H](N)Cc1c[nH]cn1)CCC(=O)O)[C@@H](C)O)[C@@H](C)O)C(C)C)C(=O)N[C@@H](C)C(=O)N[C@@H](Cc1c[nH]c2ccccc12)C(=O)N[C@@H](CC(C)C)C(=O)N[C@H](C(=O)N[C@@H](CCCCN)C(=O)NCC(=O)N[C@@H](CCCNC(=N)N)C(=O)NCC(N)=O)C(C)C [[Q-linker-b8-9, Glu22]GLP-1-(7-37)-peptide] |
| 98 | 90 | CC[C@H](C)[C@H](NC(=O)[C@H](Cc1ccccc1)NC(=O)[C@H](CCC(=O)O)NC(=O)[C@H](CCCCN)NC(=O)[C@H](C)NC(=O)[C@H](C)NC(=O)[C@H](CCC(N)=O)NC(=O)[C@H](CCC(=O)O)NC(=O)[C@H](CCC(=O)O)NC(=O)[C@H](CC(C)C)NC(=O)[C@H](Cc1ccc(O)cc1)NC(=O)[C@H](CO)NC(=O)[C@H](CO)NC(=O)[C@@H](NC(=O)[C@H](CC(=O)O)NC(=O)[C@H](CO)NC(=O)[C@@H](NC(=O)[C@H](Cc1ccccc1)NC(=O)[C@@H](NC(=O)CNC(=O)[C@H](CCC(=O)O)N[C@@H](CNC(=O)[C@@H](N)Cc1c[nH]cn1)C(F)(F)F)[C@@H](C)O)[C@@H](C)O)C(C)C)C(=O)N[C@@H](C)C(=O)N[C@@H](Cc1c[nH]c2ccccc12)C(=O)N[C@@H](CC(C)C)C(=O)N[C@H](C(=O)N[C@@H](CCCCN)C(=O)NCC(=O)N[C@@H](CCCNC(=N)N)C(=O)NCC(N)=O)C(C)C [[Q-linker-c8, Glu22]GLP-1-(7-37)-peptide] |
| 98 | 91 | CC[C@H](C)[C@H](NC(=O)[C@H](Cc1ccccc1)NC(=O)[C@H](CCC(=O)O)NC(=O)[C@H](CCCCN)NC(=O)[C@H](C)NC(=O)[C@H](C)NC(=O)[C@H](CCC(N)=O)NC(=O)[C@H](CCC(=O)O)NC(=O)[C@H](CCC(=O)O)NC(=O)[C@H](CC(C)C)NC(=O)[C@H](Cc1ccc(O)cc1)NC(=O)[C@H](CO)NC(=O)[C@H](CO)NC(=O)[C@@H](NC(=O)[C@H](CC(=O)O)NC(=O)[C@H](CO)NC(=O)[C@@H](NC(=O)[C@H](Cc1ccccc1)NC(=O)[C@@H](NC(=O)CNC(=O)[C@H](CCC(=O)O)CC(=O)[C@H](C)NC(=O)[C@@H](N)Cc1c[nH]cn1)[C@@H](C)O)[C@@H](C)O)C(C)C)C(=O)N[C@@H](C)C(=O)N[C@@H](Cc1c[nH]c2ccccc12)C(=O)N[C@@H](CC(C)C)C(=O)N[C@H](C(=O)N[C@@H](CCCCN)C(=O)NCC(=O)N[C@@H](CCCNC(=N)N)C(=O)NCC(N)=O)C(C)C [[Q-linker-e8-9, Glu22]GLP-1-(7-37)-peptide] |

Reference: patent publication US9487570B2, “Glucagon like peptide analogs, composition, and method of use” (BETTA PHARMACEUTICALS CO., LTD, priority 2010, dated 2016)
